Measured values as given in ChEMBL document CHEMBL1136239, “Bicyclo[2.2.1]heptanes as novel triple re-uptake inhibitors for the treatment of depression” (Bioorg Med Chem Lett, 2003).

Sequences of proteins named here, by UniProt entry; tags and fusion partners are left off.
UniProt P23975, whole entry: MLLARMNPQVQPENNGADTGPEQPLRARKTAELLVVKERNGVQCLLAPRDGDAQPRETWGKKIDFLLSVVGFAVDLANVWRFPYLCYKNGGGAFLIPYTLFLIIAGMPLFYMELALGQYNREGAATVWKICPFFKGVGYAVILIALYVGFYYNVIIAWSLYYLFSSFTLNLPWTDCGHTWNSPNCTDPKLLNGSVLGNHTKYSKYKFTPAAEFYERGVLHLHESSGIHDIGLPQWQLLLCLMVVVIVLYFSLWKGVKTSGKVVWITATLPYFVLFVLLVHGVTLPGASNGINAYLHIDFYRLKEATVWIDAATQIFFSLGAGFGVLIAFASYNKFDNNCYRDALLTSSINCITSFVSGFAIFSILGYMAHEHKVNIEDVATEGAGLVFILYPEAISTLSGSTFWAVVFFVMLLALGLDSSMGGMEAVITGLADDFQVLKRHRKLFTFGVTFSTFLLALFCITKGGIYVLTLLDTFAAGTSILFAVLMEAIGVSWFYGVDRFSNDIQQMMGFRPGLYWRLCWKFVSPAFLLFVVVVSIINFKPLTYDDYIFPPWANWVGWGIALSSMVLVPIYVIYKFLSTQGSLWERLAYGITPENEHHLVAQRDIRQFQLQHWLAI

Tests used:
[1] = molecular target: T1, Sodium-dependent noradrenaline transporter (Homo sapiens, UniProt P23975); test: In vitro inhibition of [3H]NE re-uptake into synaptosome; assay type: functional, tissue-based, Brain
[2] = molecular target: T1, Sodium-dependent noradrenaline transporter; test: Displacement of [3H]-Nisoxetine from norepinephrine transporter
Procedure, shortened: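 Radioligand binding: inhibitory binding constants measured against a known radiolabelled re-uptake inhibitor. Ligands were [3H]citalopram for SERT, [3H]WIN35,428 for DAT and [3H]nisoxetine for NET. Values are means of three experiments; minimum significant ratio < 3.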

SMILES	IC50 [1] [nM]	Ki [2] [nM]
CN(C)C[C@@H]1C2CCC(C2)[C@H]1c1ccc2ccccc2c1 (some centres not stated)	34	149
CN(C)CC1C2CCC(C2)C1c1ccc2ccccc2c1 (configuration not stated)	45	111
CNC[C@H]1C2CCC(C2)[C@@H]1c1ccc2ccccc2c1 (some centres not stated)	28	99
CN(C)C[C@H]1C2CCC(CC2)[C@@H]1c1cccc(Cl)c1	44	51
CN(C)C[C@H]1C2CCC(C2)[C@@H]1c1ccc2ccccc2c1 (some centres not stated)	25	152
CNCC1C2CCC(C2)C1c1ccc2ccccc2c1 (configuration not stated)	45	266
